## Binding of CDR-mutated scFvs to a peptide of the spike HR2 region

The measurements come from Li et al. 2023 (doi:10.1038/s41467-023-39022-2) through the FLAb antibody collection.

Target peptide (SARS-CoV-2 spike, HR2 region): PDVDLGDISGINAS

The variants keep the heavy chain, the linker and the frameworks of Ab-14 (scFv order VH, the linker GGGGSGGGGSGGGGS, VL).
VH: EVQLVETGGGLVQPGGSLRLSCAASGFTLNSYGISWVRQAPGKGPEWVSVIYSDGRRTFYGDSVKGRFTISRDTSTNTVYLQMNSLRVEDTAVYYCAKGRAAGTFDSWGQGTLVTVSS
VL: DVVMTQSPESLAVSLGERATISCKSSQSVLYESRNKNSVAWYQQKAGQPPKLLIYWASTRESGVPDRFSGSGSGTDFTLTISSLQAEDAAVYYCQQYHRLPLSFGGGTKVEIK

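Phage display of a naive human antibody library on the peptide gave the parent. Designed CDR sequences, proposed from the first random library and measured here. Several design methods are mixed in this list. Affinity was read by AlphaSeq, a pooled yeast mating assay with surface-displayed partners. The frequency of each diploid, read from paired DNA barcodes, reflects how well the two displayed proteins bind. A regression on co-assayed BCL2-family reference pairs converts the normalised counts of each replicate to an apparent Kd. Mating was done six times.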

The parent's light chain CDRs are KSSQSVLYESRNKNSVA, WASTRES, QQYHRLPLS; each variant's own CDRs replace them letter for letter. Values are apparent Kd, the geometric mean of the replicates that gave a signal; lower means stronger binding.

apparent Kd,detected,signal with controls,CDR-L1,CDR-L2,CDR-L3
7.5 nM,6 of 6,0 of 18,KMSQSVLMGGRNDNSVA,MASTRCS,QQYHRLPLS
120 nM,6 of 6,0 of 18,KVSEFMKGLTMRTDSIA,DNNTRNS,QQYDRLPLS
59 nM,6 of 6,2 of 18,TIGGTLMYGYRNRSNVA,EVSERLN,QQYDRLPLV
780 pM,6 of 6,1 of 18,KVSMSQLYESRNKNSVA,NASTRES,QQYHRLPLS
9.8 nM,6 of 6,0 of 18,ILSQMLLTAGNKHNSVA,QANYRED,QQYHRLPLS
830 pM,6 of 6,1 of 18,KSMQSQLYESRNKNSVA,DASTRES,QQYFRLPLS
820 pM,6 of 6,1 of 18,HLSMSVLYESRNKNSVA,NASTRES,QQYHRLPLN
580 pM,6 of 6,0 of 18,HLSDSVLYESRNKNSVA,NASTRES,QQYHRLPLG
1.2 nM,6 of 6,2 of 18,KSSQSVLYESRNKNSVA,GASTRES,QQYHCLPLS
2.0 nM,6 of 6,1 of 18,KFSQSVSYESRNKNSVA,NASTRES,QQYHSLPLW
63 nM,5 of 6,1 of 18,KLREVEHVESKQKNNVA,DNSTRES,QDYHRLPLS
32 nM,6 of 6,1 of 18,IFSQSVLMGQMTRNSVA,QASTRFN,QQYDRLPLI
790 pM,6 of 6,2 of 18,KVSCSVMLESRNKNAVA,EASQRES,QQYHRLPLS
290 nM,1 of 6,0 of 18,KIDMSLNYEPHALNSIA,EEVMHTA,QQYDKLPLF
620 pM,6 of 6,0 of 18,KLQQGELYMSRNKNSVA,DASQRES,QQYHRLPLS
7.4 nM,6 of 6,0 of 18,TISQSADQESHNKNSVA,DLSVRGS,QQYHRLPLS
4.3 nM,6 of 6,2 of 18,MMSQVSGQGTRHRNNVA,QTETREP,QQYDRLPLM
27 nM,6 of 6,1 of 18,AVSIEHKENTAIWNAIA,DTSLRNN,QQYYQLPLS
32 nM,6 of 6,1 of 18,MLWQQDEGFNGVKDAIA,NAEEREG,QQYGRLPLS
89 nM,3 of 6,1 of 18,KISQLVNFLGKNKNSVA,QMSTREE,QQYDRLPLS
1.2 µM,4 of 6,1 of 18,KSSQSVLYESLNANSVA,WASTRER,QQYHDLPLS
2.3 nM,6 of 6,2 of 18,NITQQGDNMGDQRANVA,NGETLFH,QQYARLPLL
1.3 µM,1 of 6,1 of 18,KLSISYLFESQEKNSIA,ENSTREE,QHYHRLPLS
89 nM,6 of 6,2 of 18,MLGDVAHGLSRKENSVA,DNDTRED,QQYDRLPLS
440 pM,6 of 6,0 of 18,KLQQSELYEERNSNSVA,SASLRES,QQYHRLPLS
630 pM,6 of 6,0 of 18,KSSQSFLYEARNFNSVA,DASTRES,QQYHRLPLS
240 pM,6 of 6,2 of 18,KVSQGELQESRNANNVA,NASQREN,QQYHRLPLS
28 nM,6 of 6,1 of 18,MMTMGSLGGMRARNNVA,QEETRVK,QQYHRLPLI
41 nM,4 of 6,1 of 18,SIKHGEAKNQKGDDNVA,NEAAKIV,QQYYRLPLS
11 nM,6 of 6,1 of 18,QLFSRWGQLTEIRQAVA,DATEVAD,QQYMHLPLT
7.7 nM,6 of 6,0 of 18,KQSQSVLYESRNKNSVA,MASTRMS,QQYWRLPLS
510 pM,6 of 6,1 of 18,KLSQSVLYESRNKNSVA,EASLRES,QQYHRLPLS
950 pM,6 of 6,1 of 18,KLSQSVLYESRDKNAVA,NASTRES,QQYHRLPLS
270 pM,6 of 6,1 of 18,KLSQSVLYESRNKNSVA,DASTRES,QQYQRLPLS
6.4 nM,6 of 6,0 of 18,MISQMYNMGQFAINSVA,QASQRNE,QQYDRLPLM
16 nM,6 of 6,1 of 18,IITQSVMSESKNKRNVA,NTSERED,QQYDRLPLI
5.7 nM,6 of 6,1 of 18,HMSALTLQGMRARNSVA,QMTTREN,QQYDHLPLS
63 nM,5 of 6,0 of 18,KLVYSWQYESRNKNSVA,HASQRCS,QQYHRLPLS
5.6 nM,6 of 6,0 of 18,KLSQSVLYESRNKNSVA,NASTRPS,QQYHRLPLS
1.0 nM,6 of 6,0 of 18,SFPESLPQQQTNVNAVA,GAQHTAV,QQYGRLPLT
5.2 nM,6 of 6,0 of 18,NLYQSMNFLGRVMNSIA,DAQTLPD,QQYHRLPLS
73 nM,6 of 6,0 of 18,KVSQTVLYESRNKNSVA,WASTREF,QQYHRLPLP
3.1 nM,6 of 6,2 of 18,KISESVEYESRNKNSVA,GASTRES,QQYDRLPVS
270 nM,4 of 6,1 of 18,KLSQSVLYESRCKNSVA,WATTRES,QQYPRPPLS
680 pM,6 of 6,0 of 18,KVSQSCLGESRNKMSVA,NASTREK,QQYHRLPLS
570 pM,6 of 6,1 of 18,KLEQSLNYESRNKNSVA,NASTRES,QQYHRLPLS
10 nM,6 of 6,0 of 18,TISQITSLFSQKINNVA,EVTEREQ,QQYDRLPLS
780 pM,6 of 6,3 of 18,KLMQSFLYESRNKNSVA,NASQRES,QQYHRLPLS
9.0 nM,6 of 6,0 of 18,GMSDSMTETIADANHIA,DREARDV,QQYSRLPLI
53 nM,5 of 6,0 of 18,KCSQSNLYESRNKNSVA,WASTRES,QQVHRLPLM
9.7 nM,6 of 6,0 of 18,KQSQSVLYESRNKNSVA,QASTRES,QQYHMLPLS
3.7 nM,6 of 6,2 of 18,KSSQLYLYESRNKNSVA,GASTRES,QQYHRLPLS

Values of this round are not directly comparable with the first-round values of the same sequences. Of ten entries with the parent sequence, four were seen in most replicates (averages 2.2 nM to 240 nM), three in one and three in none, so single entries are noisy. Empty control strains, which show no peptide, gave a signal in 4% of pairings with all light chain designs; the median was 430 nM and 95% of these signals were weaker than 38 nM. No background was subtracted. Also given: how often the same scFv was detected with the empty control strains. In the paper, a design with two or fewer of six values counts as a poor binder.